## Apparent affinities of Ab-95 variants for a coronavirus HR2 peptide

Antigen: PDVDLGDISGINAS, a 14-residue peptide of the SARS-CoV-2 spike HR2 region.

Ab-95 is the parent antibody, in scFv form: VH, then the linker GGGGSGGGGSGGGGS, then VL. The heavy chain is unchanged in all variants.
VH: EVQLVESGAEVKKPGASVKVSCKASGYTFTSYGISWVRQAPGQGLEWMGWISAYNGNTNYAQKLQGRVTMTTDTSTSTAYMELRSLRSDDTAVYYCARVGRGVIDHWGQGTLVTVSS
VL: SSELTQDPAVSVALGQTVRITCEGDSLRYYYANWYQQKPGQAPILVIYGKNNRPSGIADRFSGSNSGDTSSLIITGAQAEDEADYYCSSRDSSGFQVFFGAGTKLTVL

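The parent was found by panning a naive human phage display library on the peptide. AAYL52 was designed without a model: most single CDR substitutions and a random sample of double and triple ones. AlphaSeq pools MATa yeast showing the antibodies with MATalpha yeast showing the peptide. After mating in shaken culture at 30 °C for 16 h, diploids were selected and their barcode pairs sequenced. Read counts were normalised to the haploid input and turned into Kd by a linear fit to BCL2-family pairs of known affinity, for each replicate. There are three technical replicates.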

Positions count from residue 1 of the parent VL; N52M puts M in place of N.
Scale: log10 of Kd in nM, estimated from mating counts; low values are strong binders.
Replicates are averaged; those with no signal do not enter the mean.
A pair that was not seen in that replicate is written "nd"; this usually means weak binding, but a binder can also be missed.
In this assay the parent's reference entry averaged 2.31; its copy inside this library read 2.25.
Empty control strains, which show no peptide, gave a signal in 28% of pairings with library AAYL52; the median was 3.91 and 95% of these signals were weaker than 2.90. No background was subtracted. Also given: how often the same scFv was detected with the empty control strains, with their mean in brackets.

| changes | log10 Kd, replicates | log10 Kd (nM), mean | control signals |
|---|---|---|---|
| N52M/S88F/S89V | 3.03 2.61 2.10 | 2.58 | 4/9 (4.32) |
| G49D/S88C/D91P | 4.02 nd nd | 4.02 | 1/9 (2.79) |
| Y29V/N52Y/V97Q | 3.42 3.51 nd | 3.47 | 4/9 (4.13) |
| R28Q/Y30H | 1.41 1.59 0.96 | 1.32 | 2/9 (3.91) |
| G49P | 4.05 3.55 nd | 3.80 | 2/9 (3.98) |
| L27M/S93A/F95M | 2.72 2.60 2.83 | 2.72 | 1/9 (4.89) |
| G24D/L27Q/G49P | nd nd nd | nd | 0/9 |
| Y31R/A32V/S92M | 3.11 2.59 2.16 | 2.62 | 1/9 (4.57) |
| Y29V/G49E/R53Q | nd nd nd | nd | 1/9 (2.65) |
| R28C/G49D/D91K | 3.69 nd nd | 3.69 | 2/9 (2.92) |
| R53L/S88I | 3.94 4.60 4.19 | 4.24 | 3/9 (3.82) |
| Y30R/F95H | 2.16 1.72 1.90 | 1.92 | 6/9 (3.61) |
| E23A/Y30I/S55E | 1.86 2.00 1.67 | 1.84 | 3/9 (3.67) |
| G24W/Y29A | 3.97 3.17 4.25 | 3.79 | 1/9 (3.29) |
| N51I/D91W/F98C | nd nd nd | nd | 1/9 (3.22) |
| D25W/N52Y | 3.47 3.03 2.86 | 3.12 | 2/9 (4.35) |
| A32Y/S88L/S93K | 3.65 nd nd | 3.65 | 1/9 (3.94) |
| S26L/G49W/K50H | nd nd nd | nd | 1/9 (2.97) |
| Y29I/N33W/N52M | nd nd nd | nd | 2/9 (4.24) |
| R90G/Q96M | 2.53 2.09 2.46 | 2.36 | 3/9 (3.99) |
| G24N/L27W/P54H | 5.29 nd 4.06 | 4.67 | 0/9 |
| R28F/N52W/F95T | 3.71 3.38 3.03 | 3.38 | 5/9 (4.00) |
| Y30I/N52G/D91M | 3.58 3.00 2.80 | 3.13 | 4/9 (3.73) |
| R28T/N52S/F98E | 2.51 2.45 3.19 | 2.72 | 4/9 (4.06) |
| E23A/N33R/F95N | 3.86 nd nd | 3.86 | 2/9 (3.52) |
| N33T/N52A/S89H | 4.55 4.57 nd | 4.56 | 4/9 (4.21) |
| N51D/P54D/S93A | 4.13 3.51 nd | 3.82 | 1/9 (4.39) |
| D25N/Y29L/N51A | nd nd 3.55 | 3.55 | 0/9 |
| S26F/S88Y/F95L | nd nd nd | nd | 4/9 (4.44) |
| E23D/S26V/N33D | 3.67 nd nd | 3.67 | 2/9 (3.41) |
| G24C/N52E/P54H | 4.02 2.91 2.87 | 3.26 | 0/9 |
| D25R/G49V/S93Q | 4.50 nd nd | 4.50 | 4/9 (3.69) |
| D25V/R28L/N51T | nd nd nd | nd | 3/9 (3.97) |
| L27T/Y29N/Y31G | 2.00 2.18 1.63 | 1.94 | 5/9 (3.90) |
| N51W/S92R | 3.34 3.18 3.32 | 3.28 | 5/9 (3.73) |
| Y31I/S89N | nd nd nd | nd | 2/9 (4.13) |
| S55M/V97D/F98R | 2.61 3.29 3.03 | 2.98 | 4/9 (3.67) |

A selection of 6 entries from above:

| changes | log10 Kd, replicates | log10 Kd (nM), mean | control signals |
|---|---|---|---|
| E23A/Y30I/S55E | 1.86 2.00 1.67 | 1.84 | 3/9 (3.67) |
| N51W/S92R | 3.34 3.18 3.32 | 3.28 | 5/9 (3.73) |
| E23A/N33R/F95N | 3.86 nd nd | 3.86 | 2/9 (3.52) |
| R28C/G49D/D91K | 3.69 nd nd | 3.69 | 2/9 (2.92) |
| G24D/L27Q/G49P | nd nd nd | nd | 0/9 |
| L27M/S93A/F95M | 2.72 2.60 2.83 | 2.72 | 1/9 (4.89) |

Values reported by Engelhart et al. 2022, doi:10.1038/s41597-022-01779-4 (FLAb copy).